The test system of the assay is Biotin-His-Arg-Trp-Cys-Cys-Pro-Gly-Cys-Cys-Lys-Thr-Phe [SEQ ID NO 2]. Put plainly: Surface plasmon resonance (BiaCore 3000) binding to immobilised biotinylated tetracysteine peptide. (In general: In SPR one partner is held on a chip, and binding of the other changes the refractive index at the surface.)

The values below come from patent US8852552B2, “Agents and methods for visualizing analytes” (priority 2010, dated 2014).

As for “2,5-di-(1,3,2-Dithiarsolan-2yl)-9(4-fluorophenyl)-6-methoxy-3-fluorone”, the “steady state level of bound compound” value (100 μM injected at 5 microlitres/min for 5 min, 0.01 HEPES pH7.4, 0.15 M NaCl) was “about 440 RU”. In addition, where the note is “100 μM injection”, the association rate result was “high”. Moreover, the dissociation rate entry (during wash with 0.01 HEPES pH7.4, 0.15 M NaCl) is “very low”. The “affinity of interaction (in words)” value (inferred from association and dissociation rates) is reported as “high affinity interaction”.
